# This is a selection; strong and weak results do not stand in their true shares. Activity calls are given as the source filed them. Rule for the calls: active = hit-call score of the fitted dose curve at least 0.9, where 1 is the maximum; inactive = score below 0.9.
# The chains behind the UniProt entries cited, without tags or fusion partners.
# UniProt Q9UNQ0, whole entry: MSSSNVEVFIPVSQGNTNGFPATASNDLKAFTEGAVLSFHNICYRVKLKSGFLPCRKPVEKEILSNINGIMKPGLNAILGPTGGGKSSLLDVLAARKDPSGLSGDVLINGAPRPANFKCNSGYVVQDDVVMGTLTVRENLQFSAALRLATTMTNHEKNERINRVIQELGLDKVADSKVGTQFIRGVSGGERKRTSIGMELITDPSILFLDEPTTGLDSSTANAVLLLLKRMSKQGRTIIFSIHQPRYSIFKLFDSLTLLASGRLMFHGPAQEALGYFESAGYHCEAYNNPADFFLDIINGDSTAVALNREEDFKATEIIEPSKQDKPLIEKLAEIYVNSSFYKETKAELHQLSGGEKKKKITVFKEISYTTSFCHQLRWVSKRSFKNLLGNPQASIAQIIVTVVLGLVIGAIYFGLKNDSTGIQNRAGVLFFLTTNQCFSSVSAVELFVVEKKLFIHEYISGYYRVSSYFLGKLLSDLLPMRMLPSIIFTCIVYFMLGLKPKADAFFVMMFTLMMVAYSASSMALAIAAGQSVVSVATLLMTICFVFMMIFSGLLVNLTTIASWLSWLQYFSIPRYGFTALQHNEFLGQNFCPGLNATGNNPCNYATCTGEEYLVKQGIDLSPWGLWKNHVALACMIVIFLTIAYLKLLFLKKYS
# UniProt P10415, whole entry: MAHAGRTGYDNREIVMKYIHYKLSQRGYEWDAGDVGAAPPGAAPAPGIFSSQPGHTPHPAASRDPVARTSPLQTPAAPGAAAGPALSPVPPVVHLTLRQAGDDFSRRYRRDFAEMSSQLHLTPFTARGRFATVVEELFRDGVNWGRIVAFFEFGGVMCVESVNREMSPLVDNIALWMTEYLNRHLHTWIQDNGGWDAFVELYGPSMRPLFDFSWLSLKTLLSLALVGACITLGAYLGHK
# UniProt P42574, whole entry: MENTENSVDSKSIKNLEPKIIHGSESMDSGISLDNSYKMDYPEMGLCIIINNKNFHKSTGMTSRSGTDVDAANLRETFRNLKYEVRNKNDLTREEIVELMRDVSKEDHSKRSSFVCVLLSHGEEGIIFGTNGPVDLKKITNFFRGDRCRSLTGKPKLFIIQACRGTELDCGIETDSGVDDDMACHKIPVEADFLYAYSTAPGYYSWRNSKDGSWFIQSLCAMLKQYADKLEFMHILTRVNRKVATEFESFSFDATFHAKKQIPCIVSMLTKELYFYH
# UniProt P33261, whole entry: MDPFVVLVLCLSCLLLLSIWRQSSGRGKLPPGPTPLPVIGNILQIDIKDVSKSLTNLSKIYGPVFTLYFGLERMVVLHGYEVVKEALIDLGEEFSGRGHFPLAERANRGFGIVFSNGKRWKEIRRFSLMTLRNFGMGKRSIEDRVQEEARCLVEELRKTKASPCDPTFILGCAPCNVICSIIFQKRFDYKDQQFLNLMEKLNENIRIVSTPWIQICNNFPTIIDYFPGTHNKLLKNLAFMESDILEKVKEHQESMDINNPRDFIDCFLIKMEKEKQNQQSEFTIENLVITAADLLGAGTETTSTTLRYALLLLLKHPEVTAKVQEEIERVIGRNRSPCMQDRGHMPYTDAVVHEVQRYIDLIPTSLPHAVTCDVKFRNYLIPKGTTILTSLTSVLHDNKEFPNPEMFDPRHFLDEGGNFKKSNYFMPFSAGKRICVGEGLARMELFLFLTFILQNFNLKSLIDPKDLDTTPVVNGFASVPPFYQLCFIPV
# Legend:
# Conditions in all cases: actives raise or lower the signal; mRNA level, 48 h
# [1] = read-out: Broad substrate specificity ATP-binding cassette transporter ABCG2 (Homo sapiens) (UniProt Q9UNQ0); test: LTEA_HepaRG_ABCG2: Life Technologies and Expression Analysis (LTEA) Assay for ABC Transporter (ABCG2) using HepaRG (AID 2283465)
# Outline: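 HepaRG, 48 h exposure, 8-pt half-log series from 100 uM, 0.5% DMSO vehicle, duplicates. Readout: ABCG2 transcript by qRT-PCR (Fluidigm array), housekeeping-normalized; bidirectional curve fit relative to DMSO baseline.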
# [2] = read-out: ATP-citrate lyase (ACLY), ACLY (gene 47); test: LTEA_HepaRG_ACLY: Life Technologies and Expression Analysis (LTEA) Assay for ATP-citrate lyase (ACLY) using HepaRG (AID 2283466)
# Outline: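 qRT-PCR readout of ACLY transcript after 48 h chemical treatment of HepaRG cells; expression normalized to three housekeeping genes. Eight-point half-log series, highest 100 uM, 0.5% DMSO vehicle. Gain or loss fitted against DMSO baseline.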
# [3] = read-out: Peroxisomal acyl-coenzyme A oxidase 1 (ACOX1) gene, ACOX1 (gene 51); test: LTEA_HepaRG_ACOX1: Life Technologies and Expression Analysis (LTEA) Assay for Peroxisomal acyl-coenzyme A oxidase 1 (ACOX1) gene using HepaRG (AID 2283467)
# Outline: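 HepaRG, 48 h chemical exposure, 8-pt half-log series from 100 uM top, 0.5% DMSO vehicle, duplicates. Readout: ACOX1 mRNA by Fluidigm qRT-PCR, housekeeping-normalized; bidirectional fit vs DMSO baseline.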
# [4] = read-out: Alkaline Phosphatase, Placental (ALPP) gene, ALPP (gene 250); test: LTEA_HepaRG_ALPP: Life Technologies and Expression Analysis (LTEA) Assay for Alkaline Phosphatase, Placental (ALPP) gene using HepaRG (AID 2283468)
# Outline: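 Using human liver HepaRG cells, chemicals are tested in duplicate over 48 h at half-log concentrations topping at 100 uM; phenobarbital 1 mM serves as induction control. ALPP mRNA change by qRT-PCR, bidirectional fit against vehicle.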
# [5] = read-out: Bcl-2 (BAD) gene, BAD (gene 572); test: LTEA_HepaRG_BAD: Life Technologies and Expression Analysis (LTEA) Assay for Bcl-2 (BAD) gene using HepaRG (AID 2283469)
# Outline: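 HepaRG, 48 h exposure, 8-pt half-log curve from 100 uM in 0.5% DMSO, duplicates. Readout: TaqMan qRT-PCR for BAD mRNA, housekeeping-normalised (ACTB/GAPDH/POLR2A); gain or loss fitted against DMSO baseline.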
# [6] = read-out: Bcl-2 (BAX) gene, BAX (gene 581); test: LTEA_HepaRG_BAX: Life Technologies and Expression Analysis (LTEA) Assay for Bcl-2 (BAX) gene using HepaRG (AID 2283470)
# Outline: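 Cells were thawed, plated for 48 h, moved to serum-free induction medium and dosed for 48 h (highest concentration 100 uM, half-log steps, 0.5% DMSO). Total RNA was then analysed for BAX expression by qRT-PCR.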
# [7] = read-out: adenosine kinase (ADK) gene, ADK (gene 132); test: LTEA_HepaRG_ADK: Life Technologies and Expression Analysis (LTEA) Assay for adenosine kinase (ADK) gene using HepaRG (AID 2283471)
# Outline: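 ADK expression quantified by qRT-PCR, normalised to three housekeeping genes, after 48 h exposure of HepaRG cells to eight concentrations (top 100 uM, half-log steps, duplicate, 0.5% DMSO). Up- or down-regulation fitted relative to vehicle.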
# [8] = read-out: Alpha-fetoprotein (AFP) gene, AFP (gene 174); test: LTEA_HepaRG_AFP: Life Technologies and Expression Analysis (LTEA) Assay for Alpha-fetoprotein (AFP) gene using HepaRG (AID 2283472)
# Outline: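 Chemicals were tested on differentiated HepaRG cells for 48 hours at eight concentrations up to 100 uM, with 0.5% DMSO as vehicle. AFP expression was then quantified by qRT-PCR and analyzed for gain or loss relative to DMSO.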
# BCL2L11 (gene 10018) = test: LTEA_HepaRG_BCL2L11: Life Technologies and Expression Analysis (LTEA) Assay for Bcl-2 (BCL2L11) gene using HepaRG (AID 2283473)
# Outline: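 Human hepatic HepaRG cultures are treated 48 h with test chemicals (maximum 100 uM, 0.5% DMSO vehicle). Expression of BCL2L11 is measured by qRT-PCR against ACTB, GAPDH and POLR2A, with activity in either direction scored relative to vehicle.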
# [9] = read-out: Apolipoprotein A-V (APOA5) gene, APOA5 (gene 116519); test: LTEA_HepaRG_APOA5: Life Technologies and Expression Analysis (LTEA) Assay for Apolipoprotein A-V (APOA5) gene using HepaRG (AID 2283474)
# Outline: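 Concentration-response of APOA5 expression in HepaRG: eight half-log doses to 100 uM, 48 h, qRT-PCR normalized to ACTB/GAPDH/POLR2A, bidirectional fitting with 0.5% DMSO as baseline.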
# [10] = read-out: Apoptosis regulator Bcl-2 (Homo sapiens) (UniProt P10415); test: LTEA_HepaRG_BCL2: Life Technologies and Expression Analysis (LTEA) Assay for Bcl-2 gene using HepaRG (AID 2283475)
# Outline: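 Plated human HepaRG cells are exposed to test chemicals for 48 h across eight concentrations from 100 uM downward in half-log steps (0.5% DMSO). BCL2 expression is then measured by qRT-PCR with housekeeping normalisation and fitted bidirectionally against vehicle.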
# [11] = read-out: Bcl-2 (BID) gene, BID (gene 637); test: LTEA_HepaRG_BID: Life Technologies and Expression Analysis (LTEA) Assay for Bcl-2 (BID) gene using HepaRG (AID 2283476)
# Outline: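 Cells are plated, cultured 48 h, switched to serum-free induction medium, then dosed 48 h (100 uM top, half-log steps, 0.5% DMSO). RNA is isolated and BID expression read by qRT-PCR.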
# Caspase-3 (Homo sapiens) = Caspase-3 (Homo sapiens) (UniProt P42574); test: LTEA_HepaRG_CASP3: Life Technologies and Expression Analysis (LTEA) Assay for cysteine-aspartic acid protease (CASP3) using HepaRG (AID 2283477)
# Outline: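 Transcript-level assay: CASP3 mRNA in human HepaRG after 48 h treatment, eight half-log concentrations from 100 uM in 0.5% DMSO, quantified by qRT-PCR.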
# [12] = read-out: Cytochrome P450 (CYP24A1), CYP24A1 (gene 1591); test: LTEA_HepaRG_CYP24A1: Life Technologies and Expression Analysis (LTEA) Assay for Cytochrome P450 (CYP24A1) using HepaRG (AID 2283478)
# Outline: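 Gene expression of CYP24A1 by TaqMan qRT-PCR in HepaRG after 48 h treatment, highest concentration 100 uM; activity fitted in both directions relative to DMSO vehicle.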
# [13] = read-out: Cytochrome P450 (CYP1A2), CYP1A2 (gene 1544); test: LTEA_HepaRG_CYP1A2: Life Technologies and Expression Analysis (LTEA) Assay for Cytochrome P450 (CYP1A2) using HepaRG (AID 2283479)
# Outline: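 In duplicate wells, HepaRG cultures maintained in 0.5% DMSO were treated 48 h across an 8-point, half-log series topping at 100 uM; phenobarbital (1 mM) served as induction control. Expression was read by qRT-PCR.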
# [14] = read-out: cysteine-aspartic acid protease (CASP8), CASP8 (gene 841); test: LTEA_HepaRG_CASP8: Life Technologies and Expression Analysis (LTEA) Assay for cysteine-aspartic acid protease (CASP8) using HepaRG (AID 2283480)
# Outline: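 qRT-PCR readout of CASP8 mRNA, normalized to three housekeeping genes, after 48 h chemical exposure of HepaRG cells; 8-point half-log series, top 100 uM, 0.5% DMSO vehicle. Bidirectional curve fitting against DMSO baseline.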
# [15] = read-out: Cytochrome P450 (CYP2B6), CYP2B6 (gene 1555); test: LTEA_HepaRG_CYP2B6: Life Technologies and Expression Analysis (LTEA) Assay for Cytochrome P450 (CYP2B6) using HepaRG (AID 2283481)
# Outline: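 Human HepaRG, 48 h dosing, 0.5% DMSO vehicle, top dose 100 uM. CYP2B6 transcript by qRT-PCR, housekeeping-normalized, bidirectional curve fit.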
# [16] = read-out: Cytochrome P450 2C19 (Homo sapiens) (UniProt P33261); test: LTEA_HepaRG_CYP2C19: Life Technologies and Expression Analysis (LTEA) Assay for CYP2C19 using HepaRG (AID 2283482)
# Outline: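 Endpoint: CYP2C19 mRNA change, bidirectional fit vs 0.5% DMSO. Cells: HepaRG, 48 h exposure, eight-point series topping at 100 uM. Quantitation: qRT-PCR normalized to ACTB, GAPDH, POLR2A.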
# CYP2C8 (gene 1558) = test: LTEA_HepaRG_CYP2C8: Life Technologies and Expression Analysis (LTEA) Assay for CYP2C8 using HepaRG (AID 2283483)
# Outline: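 HepaRG (human liver line), 48 h chemical exposure, 8-pt half-log series from 100 uM, 0.5% DMSO vehicle. Readout: CYP2C8 transcript by qRT-PCR, housekeeping-normalized. Bidirectional fit vs DMSO baseline.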
# CYP2C9 (gene 1559) = test: LTEA_HepaRG_CYP2C9: Life Technologies and Expression Analysis (LTEA) Assay for CYP2C9 using HepaRG (AID 2283484)
# Outline: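 HepaRG, 48 h dosing, 8-pt half-log series, top 100 uM, 0.5% DMSO vehicle. Read-out: CYP2C9 transcript by TaqMan qRT-PCR, housekeeping-normalized (ACTB/GAPDH/POLR2A). Gain or loss fitted vs DMSO baseline.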
smiles,measurement,setting,value
O=[N+]([O-])c1ccccc1[N+](=O)[O-],outcome,[1],inactive
same,outcome,[2],inactive
same,outcome,[3],inactive
same,outcome,[4],inactive
same,outcome,[5],inactive
same,outcome,[6],inactive
same,outcome,[7],inactive
same,outcome,[8],inactive
same,outcome,BCL2L11 (gene 10018),inactive
same,outcome,[9],inactive
same,AC50,[10],active: 50 µM
same,outcome,[11],inactive
same,outcome,Caspase-3 (Homo sapiens),inactive
same,outcome,[12],inactive
same,AC50,[13],active: 50 µM
same,outcome,[14],inactive
same,AC50,[15],active: 6.03 µM
same,outcome,[16],inactive
same,outcome,CYP2C8 (gene 1558),inactive
same,outcome,CYP2C9 (gene 1559),inactive
